These are literature values, as cited in patent US8686137B2, “Heterocyclic compounds and their uses” (Amgen Inc., priority 2010, dated 2014).

Sequences of proteins named here, by UniProt entry; tags and fusion partners are left off. A change or cut given only in a name is not applied to a line headed by its entry.
UniProt P42338: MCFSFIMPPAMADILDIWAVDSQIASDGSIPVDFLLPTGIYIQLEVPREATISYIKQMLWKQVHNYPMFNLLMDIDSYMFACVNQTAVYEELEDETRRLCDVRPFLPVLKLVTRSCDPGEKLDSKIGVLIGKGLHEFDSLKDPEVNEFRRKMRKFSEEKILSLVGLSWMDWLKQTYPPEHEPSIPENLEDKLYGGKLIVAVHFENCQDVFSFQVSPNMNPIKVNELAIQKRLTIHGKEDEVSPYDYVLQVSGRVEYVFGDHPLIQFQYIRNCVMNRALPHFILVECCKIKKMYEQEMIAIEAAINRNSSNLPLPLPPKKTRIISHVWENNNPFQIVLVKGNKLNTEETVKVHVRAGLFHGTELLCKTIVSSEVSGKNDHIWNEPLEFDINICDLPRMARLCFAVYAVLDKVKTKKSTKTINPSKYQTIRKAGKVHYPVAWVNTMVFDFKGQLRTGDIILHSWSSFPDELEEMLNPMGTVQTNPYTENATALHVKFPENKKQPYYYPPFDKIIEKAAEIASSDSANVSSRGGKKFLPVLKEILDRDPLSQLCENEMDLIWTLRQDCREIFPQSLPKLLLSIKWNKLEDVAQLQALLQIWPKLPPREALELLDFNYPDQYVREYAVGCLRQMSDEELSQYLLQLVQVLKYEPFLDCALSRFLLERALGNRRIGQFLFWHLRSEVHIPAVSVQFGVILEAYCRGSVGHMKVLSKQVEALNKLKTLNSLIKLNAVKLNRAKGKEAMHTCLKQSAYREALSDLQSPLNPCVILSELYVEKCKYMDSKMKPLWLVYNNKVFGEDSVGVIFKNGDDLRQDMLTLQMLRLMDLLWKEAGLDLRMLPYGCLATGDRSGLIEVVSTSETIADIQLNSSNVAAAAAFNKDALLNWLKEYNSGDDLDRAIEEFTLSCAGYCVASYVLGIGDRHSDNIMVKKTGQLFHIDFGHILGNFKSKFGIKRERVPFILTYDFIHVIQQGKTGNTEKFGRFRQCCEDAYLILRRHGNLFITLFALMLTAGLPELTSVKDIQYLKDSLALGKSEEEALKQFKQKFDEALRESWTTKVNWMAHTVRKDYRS

For this data set, the target named is p110β (Homo sapiens, UniProt P42338). As to conditions: read-out: potency on beta.

Take `Cc1cc(C(C)Nc2ccccc2)c2nc(N3CCOCC3)cc(=O)n2c1` (stereo not shown) [TGX-221]: the IC50 was 7 nM.
